OPERA 2.9 data: vapor pressure values

Source: data files of OPERA 2.9 (Mansouri et al.), github.com/kmansouri/OPERA.

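The OPERA project collected these measurements from public sources as training and test data for property models. The files give a single number for a compound and property, which may rest on several reports. Method, purity and exact conditions of the single measurements are not given. A value may pool stereoisomers or salt forms, and the file does not say which form was measured. Unmarked limits or estimates from the upstream databases cannot be ruled out.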

Vapor pressure is log10 of mmHg; the set covers 15 to 30 °C, mostly 20 to 25 °C. "via" names the databases from which the curators took the value.

SMILES,log VP (log10 mmHg),via
CC1(C)CC(NCCC#N)CC(C)(CNCCC#N)C1 (stereo not given),-5.642,eChemPortal
CNC(N)=O,-4.548,eChemPortal
CC(O)CN(C)CC(C)O (stereo not given),-1.847,eChemPortal
CCC(CC)CC1(C(=O)O)CCCCC1,-3.514,eChemPortal
C=C(C)C(=O)OCCN(C)S(=O)(=O)C(F)(F)C(F)(F)C(F)(F)C(F)(F)F,-2.301,eChemPortal
CCc1nc(N)nc(N)c1-c1ccc(Cl)cc1,-7.206,OCHEM
CCCC(C#N)CCC,-0.399,eChemPortal
CC(=O)Oc1c(C)c(C)c2c(c1C)CCC(C)(CCCC(C)CCCC(C)CCCC(C)C)O2 (stereo not given),-10.19,eChemPortal
CC1=CC(C)C(CO)C(C)C1 (stereo not given),-1.745,eChemPortal
CCOC(=O)c1nn(-c2ccc(OC)cc2)c2c1CCN(c1ccc([N+](=O)[O-])cc1)C2=O,-9.71,eChemPortal
C=CC(=O)OCCN(C)S(=O)(=O)C(F)(F)C(F)(F)C(F)(F)C(F)(F)C(F)(F)C(F)(F)C(F)(F)C(F)(F)F,-5.157,ICF
COS(=O)(=O)[O-].C[N+](C)(C)c1ccc2ccc(O)cc2c1,-8.253,eChemPortal
CC(O)CN(CCN(CC(C)O)CC(C)O)CC(C)O (stereo not given),-4.983,eChemPortal
CCCc1ccc(-c2ccc(-c3ccc(CC)cc3)cc2F)cc1,-7.431,eChemPortal
CC(C)(C=NCCCCCCN=CC(C)(C)CN1CCOCC1)CN1CCOCC1,-4.418,eChemPortal
COc1cc(/N=N/c2cccc(S(=O)(=O)[O-])c2)ccc1Nc1nc(Nc2ccc(/N=N/c3cccc(S(=O)(=O)[O-])c3)cc2OC)nc(N(CCO)CCO)n1.[Na+].[Na+],-9.491,eChemPortal
CO[Si](C)(CCl)OC,0.776,eChemPortal
CC(C)=CCCC(C)C=O (stereo not given),0.154,eChemPortal
CC1(C)CCC[C@]2(C)[C@H]3CCO[C@]3(C)CC[C@@H]12,-3.305,eChemPortal
NCCCCCCNCCCCCCN,-4.126,eChemPortal
C/C=C/CCC1CCC([C@H]2CC[C@H](CCC)CC2)CC1 (some centres undefined),-6.06,eChemPortal
C=CCOC(=O)CCCCC,0.305,eChemPortal
CC(O)C(=O)O.CCCCC(CC)COC(=O)Nc1ccc(C)c(NC(=O)OCCN(C)C)c1 (stereo not given),-7.582,OFMPub
N#CI,0,PubChem
O=C1CCC(=O)[C@H]2[C@@H]1[C@H]1CC[C@@H]2C1=C(Cl)Cl,-6.72,eChemPortal
CN(C)C(C)(C)CO,0.733,eChemPortal
CCCC1CCC(C2CCC(c3ccc(OCC)c(F)c3F)CC2)CC1 (stereo not given),-4.696,eChemPortal
CC(=O)OCC(=O)C1=CC[C@@H]2[C@H]3CCC4=CC(=O)C=C[C@@]4(C)[C@@H]3[C@H](OC(C)=O)C[C@@]12C,-9.639,eChemPortal
CCCCOC(=O)C(C)OC(=O)CCC (stereo not given),-1.684,eChemPortal
Nc1cccc(OC2(Oc3cccc(N)c3)C=CC(c3ccccc3)=CC2)c1,-6.347,eChemPortal
Nc1c(S(=O)(=O)[O-])cc(Nc2cccc(S(=O)(=O)CCOS(=O)(=O)[O-])c2)c2c1C(=O)c1ccccc1C2=O.[Na+].[Na+],-6.663,eChemPortal

The 3 lowest values of log VP among the entries above:

SMILES,log VP (log10 mmHg),via
CC(=O)Oc1c(C)c(C)c2c(c1C)CCC(C)(CCCC(C)CCCC(C)CCCC(C)C)O2 (stereo not given),-10.19,eChemPortal
CCOC(=O)c1nn(-c2ccc(OC)cc2)c2c1CCN(c1ccc([N+](=O)[O-])cc1)C2=O,-9.71,eChemPortal
CC(=O)OCC(=O)C1=CC[C@@H]2[C@H]3CCC4=CC(=O)C=C[C@@]4(C)[C@@H]3[C@H](OC(C)=O)C[C@@]12C,-9.639,eChemPortal